Literature values in EP2149374A1 (WORLD-TRADE IMPORT-EXPORT, WTIE, A.G., priority 2007, dated 2008).

Conditions: after administration; cited from earlier work

## O=C(O)c1cn(C2CC2)c2cc(N3CCNCC3)c(F)cc2c1=O [Ciprofloxacin]
  time to maximum haematic concentrations: about one
